# Rows were chosen to be rich in hits. Some 1.9% of all compounds tested hit in one or more screens of this group.
# FGF22 binding = binders of recombinant human FGF22 by thermal shift. Q9HCT0. SYPRO orange fluorescence; percent of sucrose octasulfate shift, DMSO zero. activity (Tm shift, normalised), % at 9.99 µM. 1.5% of 340,000 active;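 active means mean Tm shift, scaled 0 neutral to 100 positive control, at about 1.3% or above, every replicate too, limit read from the data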
# PDI inh = blocks human protein disulfide isomerase activity | PDI insulin aggregation turbidity, A650, 90 min | inhibition, % at 10 µM | 0.052% of 350,000 active;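 active means mean inhibition across replicates of 30% or more, whatever share of single replicates reach that level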
# ARNT-TACC3 inh = ARNT/TACC3 interaction disruption; AlphaScreen His-ARNT PAS-B/GST-TACC3 binding, luminescence; TACC3 fragment carries E629A point mutation; inhibition, % at 9.99 µM; 0.66% of 390,000 active; AID 623870;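 active means mean inhibition of replicates at least 50% and at least half of replicates each reaching 50%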;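 further: 0% = complete ARNT plus TACC3 wells and 100% = ARNT alone without TACC3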
# ERp5 block = blocks human ERp5 reductase activity on insulin; ERp5 insulin aggregation, absorbance 650 nm, 90 min; Q15084; inhibition, % at 9.99 µM; 0.05% of 350,000 active;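 active means mean replicate inhibition above about 25%, with every replicate also reaching it, limit read from the data, passing the limit was not always enough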
# UUG fidelity = yeast start codon fidelity modulation | S. cerevisiae UUG-firefly luciferase reporter, luminescence/redox ratio | activity score, % at 18.7 µM | hit rate 0.13% among 350,000 | AID 602363;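 active means replicate mean at a twofold rise or more, about +100% in these data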;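 further: firefly luciferase made from a UUG start codon reports start codon fidelity; reporter light over untreated wells divided by growth signal over untreated wells; some hits fall short of that in this replicate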
# PglD inh = blocks C. jejuni PglD acetyltransferase activity. purified PglD enzyme, DTNB colorimetric CoA detection. inhibition, % at 12.5 µM. 0.098% of 360,000 active. AID 602405; in the data active means inhibition above about 16%, passing the limit was not always enough
# The depositor's hits bear a star; x = no result.
# Keys: A = FGF22 binding; B = PDI inh; C = ARNT-TACC3 inh; D = ERp5 block; E = UUG fidelity; F = PglD inh
1	O=C1C(Cl)=C(O)C2(Cl)C(Cl)=C(Cl)C12Cl (stereo not given)
  A: 1.4*; B: 3; C: 14; D: -1; E: -10; F: -1

2	COc1cccc(N=C(N)N)c1
  A: 43*; B: -1; C: 1; D: 0; E: -11; F: 1

3	Nc1[nH]c(C(=O)c2ccccc2)c(-c2ccccc2Br)c1C(=O)NCCc1c[nH]c2ccccc12
  A: 0; B: x; C: x; D: 0; E: x; F: x

4	Nc1[nH]c(C(=O)c2ccc(Br)cc2)c(-c2ccccc2Br)c1C(=O)NCCc1c[nH]c2ccccc12
  A: 44*; B: x; C: x; D: -2; E: x; F: x

5	C(=N\Nc1nncn1/N=C/c1ccco1)/c1ccco1
  A: 0; B: -12; C: 64*; D: 5; E: x; F: x

6	COCC(=O)Nc1ccc2c(c1)C(=O)N(C)[C@H]1CC[C@@H](CC(=O)NCCc3ccncc3)O[C@@H]1CO2
  A: 0; B: x; C: -1; D: -2; E: -1; F: -2

7	CC1(C)C(/C=C/C=C/C=C/C=C2\N(CCCCS(=O)(=O)O)c3ccc4ccccc4c3C2(C)C)=[N+](CCCCS(=O)(=O)[O-])c2ccc3ccccc3c21
  A: x; B: 22; C: 65*; D: x; E: 8; F: -5

8	O=C(/C=C/NNC(=O)c1ccc(Cl)cc1)c1ccccc1
  A: 44*; B: 4; C: 1; D: -3; E: x; F: x

9	S=c1[nH]nc(-c2ccccn2)n1/N=C/c1cccs1
  A: 0; B: 2; C: 59*; D: 6; E: x; F: x

10	Cc1ccccc1/C=N/n1c(-c2cc(-c3ccccc3)n[nH]2)n[nH]c1=S
  A: 0; B: 13; C: -8; D: 2; E: x; F: x

11	Cc1ccccc1/C=N/n1c(-c2ccccn2)n[nH]c1=S
  A: 0; B: -3; C: 71*; D: x; E: -12; F: 2

12	S=c1[nH]nc(-c2ccccn2)n1/N=C/c1cccc2ccccc12
  A: 0; B: -1; C: 56*; D: 1; E: x; F: x

13	COc1ccccc1/C=C/C=N/n1c(-c2cc(C)[nH]n2)n[nH]c1=S
  A: 1; B: 9; C: -1; D: 0; E: -9; F: 2

14	COc1ccccc1/C=C/C=N/n1c(-c2ccccn2)n[nH]c1=S
  A: 0; B: -5; C: 65*; D: 0; E: -20; F: -3

15	S=c1[nH]nc(-c2ccc(Cl)cc2)n1/N=C/c1cccs1
  A: 0; B: 2; C: -2; D: 10; E: -9; F: -1

16	Cc1ccc(S(=O)(=O)Nc2ccc3c(c2)CC(=O)N([C@H](C)CO)C[C@H](C)[C@@H](CN(C)S(=O)(=O)c2ccccc2)O3)cc1
  A: 0; B: x; C: 12; D: x; E: -2; F: 1

17	S=c1[nH]nc(-c2ccccc2)n1/N=C/c1ccc(Cl)cc1
  A: 0; B: -9; C: 8; D: -1; E: -18; F: 8

18	Cc1ccc(/C=N/n2c(-c3ccccn3)n[nH]c2=S)o1
  A: 0; B: 11; C: 91*; D: 3; E: x; F: x

19	S=c1[nH]nc(-c2ccccn2)n1/N=C/c1ccc(Cl)cc1
  A: -1; B: 8; C: 77*; D: 1; E: x; F: x

20	S=c1[nH]nc(-c2ccccn2)n1/N=C/c1c(Cl)cccc1Cl
  A: 0; B: 5; C: 79*; D: -4; E: x; F: x

21	CC(/C=N/n1c(-c2ccccn2)n[nH]c1=S)=C\c1ccccc1
  A: 0; B: -5; C: x; D: 2; E: -23; F: 8

22	S=c1[nH]nc(-c2ccccn2)n1/N=C/c1ccccc1
  A: 0; B: -6; C: 57*; D: 5; E: x; F: x

23	CN(C)C(=O)c1cccc(-c2ccc([C@@H]3[C@@H](CO)N(C(=O)C4CCCC4)[C@H]3C#N)cc2)c1
  A: x; B: x; C: x; D: 3; E: x; F: x

24	CCCc1nc2c(=O)n(C)c(=O)nc-2n(C)n1
  A: 0; B: 160*; C: 10; D: 85*; E: -13; F: -6

25	CC(NC(=O)C1CCCC1)c1ccccc1 (stereo not given)
  A: 0; B: -10; C: -7; D: 0; E: -20; F: -5

26	CC(NC1CCCC1)c1ccccc1 (stereo not given)
  A: 44*; B: 5; C: -10; D: 0; E: -9; F: 4

27	c1cncc(Nc2nc(-c3cccs3)cs2)c1
  A: 0; B: -3; C: 2; D: -3; E: 8; F: 5

28	c1ccc(-c2csc(Nc3cccnc3)n2)nc1
  A: x; B: 1; C: 45*; D: x; E: -21; F: 4

29	COc1cccc2sc(Nc3nc(-c4ccccn4)cs3)nc12
  A: x; B: -12; C: 45*; D: x; E: -33; F: 2

30	COC(=O)C[C@@H]1CC[C@@H]2[C@H](COc3ccc(NC(=O)Nc4cccc(Cl)c4)cc3C(=O)N2C)O1
  A: 0; B: x; C: 14; D: 3; E: 10; F: -1

31	CO[C@H]1CN(C)C(=O)c2cc(NS(=O)(=O)c3ccc(C)cc3)ccc2OC[C@@H](C)NC[C@@H]1C
  A: 0; B: x; C: -6; D: 3; E: -6; F: -1

32	N#CC1CC(c2ccc([N+](=O)[O-])cc2)=NN1c1ccc([N+](=O)[O-])cc1 (stereo not given)
  A: 44*; B: -3; C: 7; D: 3; E: -13; F: 1

# Gathered by group, the entries above with a cyano group
# Keys: A = FGF22 binding; B = PDI inh; C = ARNT-TACC3 inh; D = ERp5 block; E = UUG fidelity; F = PglD inh
23	CN(C)C(=O)c1cccc(-c2ccc([C@@H]3[C@@H](CO)N(C(=O)C4CCCC4)[C@H]3C#N)cc2)c1
  A: x; B: x; C: x; D: 3; E: x; F: x

32	N#CC1CC(c2ccc([N+](=O)[O-])cc2)=NN1c1ccc([N+](=O)[O-])cc1 (stereo not given)
  A: 44*; B: -3; C: 7; D: 3; E: -13; F: 1
